Among the data in PubChem BioAssay AID504333 (National Center for Advancing Translational Sciences (NCATS), 2011) are Potency values, retold here.

Protein sequences, listed by entry. Tags and fused reporters are not part of them.
UniProt Q9UIF8, whole entry: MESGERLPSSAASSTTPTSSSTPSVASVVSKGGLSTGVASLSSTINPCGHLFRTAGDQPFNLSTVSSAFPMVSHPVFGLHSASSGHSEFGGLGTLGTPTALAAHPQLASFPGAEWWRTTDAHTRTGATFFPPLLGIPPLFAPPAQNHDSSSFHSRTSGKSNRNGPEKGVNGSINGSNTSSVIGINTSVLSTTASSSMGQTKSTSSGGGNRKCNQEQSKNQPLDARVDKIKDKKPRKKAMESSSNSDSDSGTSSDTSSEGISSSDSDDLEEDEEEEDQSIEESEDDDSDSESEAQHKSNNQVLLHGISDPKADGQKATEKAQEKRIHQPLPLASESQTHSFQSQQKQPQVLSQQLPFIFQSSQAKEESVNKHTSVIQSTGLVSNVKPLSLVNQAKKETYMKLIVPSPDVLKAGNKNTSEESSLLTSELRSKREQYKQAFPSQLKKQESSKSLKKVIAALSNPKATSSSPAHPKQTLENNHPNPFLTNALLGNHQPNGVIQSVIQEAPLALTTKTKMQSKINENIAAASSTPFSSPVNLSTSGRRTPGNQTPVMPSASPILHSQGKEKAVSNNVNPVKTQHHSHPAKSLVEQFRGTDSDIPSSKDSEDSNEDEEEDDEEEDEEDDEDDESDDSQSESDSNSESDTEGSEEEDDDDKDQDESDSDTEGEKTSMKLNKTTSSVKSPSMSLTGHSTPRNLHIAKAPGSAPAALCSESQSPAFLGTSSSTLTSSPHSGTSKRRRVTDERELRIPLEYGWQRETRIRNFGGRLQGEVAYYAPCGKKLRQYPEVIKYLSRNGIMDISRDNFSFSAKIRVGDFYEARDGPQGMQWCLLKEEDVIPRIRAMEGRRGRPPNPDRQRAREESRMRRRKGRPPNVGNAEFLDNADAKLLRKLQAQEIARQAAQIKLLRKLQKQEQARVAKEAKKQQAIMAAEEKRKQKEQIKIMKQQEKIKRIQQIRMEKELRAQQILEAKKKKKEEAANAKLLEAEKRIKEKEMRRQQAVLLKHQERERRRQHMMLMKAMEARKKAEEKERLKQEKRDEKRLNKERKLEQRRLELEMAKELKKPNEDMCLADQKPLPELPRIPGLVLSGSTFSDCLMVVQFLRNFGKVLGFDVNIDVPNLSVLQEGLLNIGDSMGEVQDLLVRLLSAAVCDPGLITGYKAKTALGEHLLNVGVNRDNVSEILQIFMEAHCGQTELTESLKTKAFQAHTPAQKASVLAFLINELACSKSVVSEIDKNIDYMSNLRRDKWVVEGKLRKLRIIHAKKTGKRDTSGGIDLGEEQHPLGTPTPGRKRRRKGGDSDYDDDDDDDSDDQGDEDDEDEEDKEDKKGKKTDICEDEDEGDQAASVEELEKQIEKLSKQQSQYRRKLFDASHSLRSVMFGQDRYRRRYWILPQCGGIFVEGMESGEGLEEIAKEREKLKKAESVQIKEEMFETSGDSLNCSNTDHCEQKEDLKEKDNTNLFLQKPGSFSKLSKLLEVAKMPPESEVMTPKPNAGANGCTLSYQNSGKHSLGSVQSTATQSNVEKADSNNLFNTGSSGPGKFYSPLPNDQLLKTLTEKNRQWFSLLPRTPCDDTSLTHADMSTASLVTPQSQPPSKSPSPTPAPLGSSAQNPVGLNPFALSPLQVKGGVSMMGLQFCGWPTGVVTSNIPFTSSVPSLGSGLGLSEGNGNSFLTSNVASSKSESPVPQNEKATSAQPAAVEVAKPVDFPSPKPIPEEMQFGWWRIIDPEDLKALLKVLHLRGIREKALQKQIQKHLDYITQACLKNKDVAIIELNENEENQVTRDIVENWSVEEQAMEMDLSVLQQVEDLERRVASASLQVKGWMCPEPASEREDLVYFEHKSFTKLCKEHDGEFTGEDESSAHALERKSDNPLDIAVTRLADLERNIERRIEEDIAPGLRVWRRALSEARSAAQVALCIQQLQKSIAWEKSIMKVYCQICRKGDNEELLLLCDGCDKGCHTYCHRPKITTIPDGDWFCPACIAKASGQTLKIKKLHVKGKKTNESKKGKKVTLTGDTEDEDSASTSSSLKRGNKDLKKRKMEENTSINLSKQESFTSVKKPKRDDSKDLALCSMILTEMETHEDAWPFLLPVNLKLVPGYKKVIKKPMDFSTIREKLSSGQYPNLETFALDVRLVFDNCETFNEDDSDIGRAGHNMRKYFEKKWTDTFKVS

The structures appear in SMILES notation. This is a selection; strong and weak results do not stand in their true shares. Inconclusive results are not listed. Entries that show only a call come without a potency. Some salts or complexes appear as unconnected parts, following the source record. The source made the active and inactive calls. Calls come from the whole dose curve; as a rule, active = well fitted inhibition curve with a large enough effect; inconclusive = small, poorly fitted or top-dose-only effect; inactive = no such curve, though single readings can be large or run the other way.
Potency is the fitted concentration of half-maximal effect.

This assay has as its target Bromodomain adjacent to zinc finger domain protein 2B (Homo sapiens) (UniProt Q9UIF8). In words: qHTS Assay for Inhibitors of BAZ2B. Note: nearly all actives have a fitted effect of over 60% in size. The note with it: AlphaScreen BAZ2B-H3K14Ac peptide displacement; series mostly up to 114 µM. A general note: Quantitative high-throughput screening tests each substance at several concentrations.
Regarding `Cc1ccc(OCC(C)C)c(CN(CCCl)CCCl)c1`, the Potency was active: 70.8 µM.

As to `CCOC(=O)N1CCC(Nc2cccc(C)c2)CC1`, the Potency is active: 79.4 µM.

On to `COc1cc(C(=O)NCC2(N(C)C)CCCCC2)ccc1OC(F)F`, for which the Potency entry was “inactive”.

In the case of `COc1ccccc1C(=O)NCC1(N2CCOCC2)CCCCC1`, the Potency entry is “inactive”.

In the case of `CCOC(=O)N1CCC(Nc2ccc(F)cc2)CC1`, the Potency entry is “inactive”.

Regarding `COc1ccc(NC2CCN(CCc3ccccc3)CC2)c(OC)c1`, the Potency was active: 44.7 µM.

For `CCCCOc1ccc(C(=O)NCC2(N3CCOCC3)CCCCC2)cc1`, the Potency entry was “inactive”.

Regarding `O=C(NCC1(N2CCCCC2)CCCCC1)c1ccc(F)cc1`, the Potency entry was “inactive”.

As for `COc1ccc(Cl)cc1C(=O)NCC1(N2CCOCC2)CCCCC1`, the Potency result was “inactive”.

In the case of `O=C(NCC1(N2CCCCC2)CCCCC1)c1ccc(Cl)s1`, the Potency result is “inactive”.

In the case of `N#CC1(Nc2ccccc2)CCN(Cc2ccccc2)CC1`, the Potency result is “inactive”.

Consider `O=C(OC1CN2CCC1CC2)C1c2ccccc2Oc2ccccc21` (centres undefined), for which the Potency entry was “inactive”.

On to `CCOC(=O)N1CCC(Nc2ccc(OC)cc2)CC1`, for which the Potency entry is “inactive”.

With `Cc1cc(C)cc(N(C(=O)c2ccccc2)C2CCN(C(=O)OC(C)(C)C)CC2)c1`, the Potency entry was “inactive”.

Regarding `O=C(NCC1(N2CCCCC2)CCCCC1)c1ccc(Cl)nc1`, the Potency entry was “inactive”.

`CSc1ccccc1C(=O)NCC1(N2CCCCC2)CCCCC1`: the Potency result is “inactive”.

`COc1ccc(C(=O)NCC2(N3CCCCC3)CCCCC2)c(OC)c1OC`: the Potency result is “inactive”.

For the compound `CC(C)(C)OC(=O)N1CCC(N(C(=O)c2ccccc2)c2ccc(F)cc2)CC1`, the Potency result was “inactive”.

With `COc1ccc(C(=O)NCC2(N3CCCCC3)CCCCC2)cc1`, the Potency entry is “inactive”.

For `O=C(NCC1(N2CCCCC2)CCCCC1)c1cccs1`, the Potency result was “inactive”.

For `O=C(NCC1(N2CCCCC2)CCCCC1)c1ccc(=O)[nH]c1`, the Potency entry is “inactive”.

For `CCCOc1ccc(C(=O)NCC2(N(C)C)CCCCC2)cc1OC`, the Potency entry is “inactive”.

For the compound `CCCCOc1ccccc1C(=O)NCC1(N2CCOCC2)CCCCC1`, the Potency result is “inactive”.

On to `O=C(OC1CN2CCC1CC2)c1ccc([N+](=O)[O-])cc1` (centres undefined), for which the Potency result is “inactive”.

As to `O=C(NCC1(N2CCCCC2)CCCCC1)c1cncc(Br)c1`, the Potency result is “inactive”.

Consider `COc1ccc2c(c1O)-c1c(O)c(OC)cc3c1[C@H](C2)[N+](C)(C)CC3.O=[N+]([O-])c1cc([N+](=O)[O-])c([O-])c([N+](=O)[O-])c1[O-]`, for which the Potency entry was “inactive”.

Regarding `COc1cc(OC)c(C(=O)NCC2(N(C)C)CCCCC2)cc1OC`, the Potency result is “inactive”.

Regarding `CN(C)c1cccc(C(=O)NCC2(N3CCCCC3)CCCCC2)c1`, the Potency entry is “inactive”.

In the case of `COc1ccc(CN(CCCl)CCCl)cc1Cl`, the Potency result is “inactive”.

On to `COc1cc(C(=O)NCC2(N3CCCCC3)CCCCC2)ccc1OC(F)F`, for which the Potency entry is “inactive”.

Consider `CC(C)c1ccc(C(=O)NCC2(N3CCOCC3)CCCCC2)cc1`, for which the Potency entry was “inactive”.

In the case of `CN1CCN(CCOC(=O)C(O)(c2ccccc2)c2ccccc2)CC1`, the Potency result was “inactive”.

With `O=C(NCC1(N2CCCCC2)CCCCC1)c1cccc(C(F)(F)F)c1`, the Potency entry is “inactive”.

With `CCCOc1cccc(C(=O)NCC2(N3CCOCC3)CCCCC2)c1`, the Potency entry was “inactive”.

Turning to `N#CC1(Nc2ccccc2)CCN(CCc2ccccc2)CC1`, the Potency result was “inactive”.

For `CCN1CCC(Nc2ccc(Cl)cc2)CC1`, the Potency result was “inactive”.

On to `O=C(NCC1(N2CCCCC2)CCCCC1)c1cccc([N+](=O)[O-])c1`, for which the Potency entry was “inactive”.

Regarding `CCOc1ccc(C(=O)NCC2(N3CCOCC3)CCCCC2)cc1`, the Potency result is “inactive”.

For the compound `CSc1ccc(C(=O)NCC2(N3CCOCC3)CCCCC2)cc1`, the Potency result was “inactive”.

As to `O=C(NCC1(N2CCCCC2)CCCCC1)c1ccc(OC(F)F)cc1`, the Potency result is “inactive”.

On to `CN(C)C1(CNC(=O)c2cccc(C#N)c2)CCCCC1`, for which the Potency result was “inactive”.

Consider `CCCN1CCC(Nc2cc(OC)cc(OC)c2)CC1`, for which the Potency entry was “inactive”.

With `O=C(NCC1(N2CCOCC2)CCCCC1)c1ccccc1`, the Potency entry was “inactive”.

With `c1ccc(CN2CCC(Nc3ccccc3)CC2)cc1`, the Potency result is “inactive”.

Regarding `CCOC(=O)C(CC)C1=NC(C)(C)Cc2ccccc21.O=[N+]([O-])c1cc([N+](=O)[O-])c(O)c([N+](=O)[O-])c1` (centres undefined), the Potency result is “inactive”.

Consider `O=C(NCC1(N2CCOCC2)CCCCC1)c1ccccc1[N+](=O)[O-]`, for which the Potency entry was “inactive”.

In the case of `N#Cc1ccc(C(=O)NCC2(N3CCCCC3)CCCCC2)cc1`, the Potency entry is “inactive”.

Take `CC(C)(C)OC(=O)N1CCC(N(C(=O)c2ccccc2)c2ccc(Cl)cc2)CC1`: the Potency result is “inactive”.

Regarding `O=C(NCC1(N2CCOCC2)CCCCC1)c1ccc([N+](=O)[O-])cc1`, the Potency entry is “inactive”.

Regarding `O=C(O)c1cccc(Nc2c([N+](=O)[O-])cc([N+](=O)[O-])cc2[N+](=O)[O-])c1`, the Potency entry was “inactive”.

Take `CCc1cc(C(=O)NCC2(N3CCCCC3)CCCCC2)sc1C`: the Potency result is “inactive”.

`O=C(OC1CN2CCC1CC2)C1c2ccccc2C=Cc2ccccc21` (centres undefined): the Potency entry was “inactive”.

In the case of `CCOC(=O)N1CCC(Nc2ccc(C)cc2)CC1`, the Potency entry was “inactive”.

With `N/C(=N\O)c1c(N)no[n+]1[O-]`, the Potency entry is “inactive”.

`COc1ccc(C(=O)NCC2(N3CCOCC3)CCCCC2)cc1OC`: the Potency entry is “inactive”.

Turning to `O=C(NCC1(N2CCOCC2)CCCCC1)c1cc(Br)ccc1Cl`, the Potency entry is “inactive”.

For `CN1CCC(Nc2ccc(Cl)cc2)CC1`, the Potency entry was “inactive”.

Turning to `COc1cccc(C(=O)N(c2cc(C)cc(C)c2)C2CCN(C(=O)OC(C)(C)C)CC2)c1`, the Potency entry is “inactive”.

Turning to `COc1cc(C(=O)NCC2(N3CCOCC3)CCCCC2)cc(OC)c1OC`, the Potency entry is “inactive”.

As to `COc1cc(OC)cc(C(=O)NCC2(N3CCOCC3)CCCCC2)c1`, the Potency result was “inactive”.

On to `CCC(CO)(C(=O)OC1CN2CCC1CC2)c1ccccc1` (centres undefined), for which the Potency result is “inactive”.

`O=C(O)C1(Nc2ccccc2)CCN(Cc2ccccc2)CC1`: the Potency result was “inactive”.

Turning to `CC(C)(C)OC(=O)N1CCC(Nc2ccccc2)CC1`, the Potency entry is “inactive”.

Consider `CCCOc1ccc(C(=O)NCC2(N(C)C)CCCCC2)cc1`, for which the Potency entry is “inactive”.

Consider `CCOc1ncccc1C(=O)NCC1(N2CCOCC2)CCCCC1`, for which the Potency result is “inactive”.

In the case of `Cc1ccccc1C(=O)NCC1(N(C)C)CCCCC1`, the Potency result is “inactive”.

Consider `CN(C)c1ccc(C(=O)NCC2(N3CCCCC3)CCCCC2)cc1`, for which the Potency result is “inactive”.

`O=C(NCC1(N2CCCCC2)CCCCC1)c1ccco1`: the Potency entry is “inactive”.

As for `CC(C)(C)c1ccc(C(=O)NCC2(N3CCOCC3)CCCCC2)cc1`, the Potency result was “inactive”.

Consider `CCN1CCC(Nc2cccc(F)c2)CC1`, for which the Potency entry is “inactive”.

As to `Fc1ccccc1NC1CCN(Cc2ccccc2)CC1`, the Potency is active: 39.8 µM.

For the compound `Cc1ccc(C(=O)NCC2(N3CCCCC3)CCCCC2)o1`, the Potency result is “inactive”.

Regarding `CN(C)C1(CNC(=O)c2ccc(C(C)(C)C)cc2)CCCCC1`, the Potency entry was “inactive”.

For `COc1cc(OC)cc(C(=O)NCC2(N3CCCCC3)CCCCC2)c1`, the Potency entry was “inactive”.
